# Only a part is listed here, and it is no random draw. Active and inactive are the calls of the source. No stated cut-off is given here; in the data, active means inhibition above about 52%; inactive means the rest.
# Assay: inhibition of PrP 5' UTR reporter expression (AID 488862); further: 0 = median of the neutral control wells
# Conditions: cell-based PrP 5' UTR mRNA reporter, plate reader; active compounds read high; concentration not given here
row,SMILES,inhibition
1,CCC(=O)N(c1ccccc1)C1(COC)CCN(CCn2nnn(CC)c2=O)CC1,inactive: -4.41%
2,CCC(=O)N(c1ccccc1)C1(COC)CCN(CCc2cccs2)CC1,inactive: -28.3%
